Assay results from article PMC3949517 (Acta Crystallographica Section D: Biological Crystallography, 2014).

Columns and labels:
A17λ reactibody = format: binding, human; details: read-out: Kd (BiaCore affinity constant)
[1] = biological target: pep54C, cyclic (oxidized) synthetic peptide 54; assay: SPR; Biacore T200, SA sensor chip; biotinylated synthetic peptides immobilised, antibodies injected at a range of concentrations, 10 µl/min, 298 K; association and dissociation 300 s each; 1:1 binding model, affinity-analysis option
[2] = biological target: pep50C, cyclic (oxidized) synthetic peptide 50; assay: as above

| Compound | Kd (A17λ reactibody) [µM] | Kd [1] [µM] | Kd [2] [µM] |
| --- | --- | --- | --- |
| CC(C)C[C@@H]1NC(=O)CNC(=O)[C@H](Cc2c[nH]c3ccccc23)NC(=O)[C@@H]2CCCN2C(=O)[C@H](CC(N)=O)NC(=O)[C@H](CCCNC(=N)N)NC(=O)[C@@H](NC(=O)[C@H](C)NC(=O)CN)CSSC[C@@H](C(=O)NCC(=O)N[C@@H](C)C(=O)N[C@@H](C)C(=O)NCC(=O)N[C@@H](C)C(=O)N[C@@H](CCC(=O)O)C(=O)N[C@@H](CCCCNC(=O)CCCC[C@@H]2SC[C@@H]3NC(=O)N[C@@H]32)C(N)=O)NC(=O)[C@H]([C@@H](C)O)NC1=O [50C] | 2.2 |  |  |
| CC(C)C[C@@H]1NC(=O)CNC(=O)[C@H](Cc2c[nH]c3ccccc23)NC(=O)[C@@H]2CCCN2C(=O)[C@H](CC(N)=O)NC(=O)[C@@H]2CCCN2C(=O)[C@@H](NC(=O)[C@H](C)NC(=O)CN)CSSC[C@@H](C(=O)NCC(=O)N[C@@H](C)C(=O)N[C@@H](C)C(=O)NCC(=O)N[C@@H](C)C(=O)N[C@@H](CCC(=O)O)C(=O)N[C@@H](CCCCNC(=O)CCCC[C@@H]2SC[C@@H]3NC(=O)N[C@@H]32)C(N)=O)NC(=O)[C@H](CC(C)C)NC1=O [54C] | 4.8 |  |  |
| FabA17λ (Fab of the A17 reactibody with the λ light-chain constant domain) |  | 4.8 | 2.2 |
